Paper PMC10485906, “Development of a Dihydroquinoline–Pyrazoline GluN2C/2D-Selective Negative Allosteric Modulator of the N-Methyl-D-aspartate Receptor” (ACS Chemical Neuroscience, 2023)
Like-named read-outs stand apart in the source and are kept apart here.

Chains of the proteins cited; added tags and fusions are not shown. Residues count along the entry.
UniProt Q62645, 28-1323 limits assumed: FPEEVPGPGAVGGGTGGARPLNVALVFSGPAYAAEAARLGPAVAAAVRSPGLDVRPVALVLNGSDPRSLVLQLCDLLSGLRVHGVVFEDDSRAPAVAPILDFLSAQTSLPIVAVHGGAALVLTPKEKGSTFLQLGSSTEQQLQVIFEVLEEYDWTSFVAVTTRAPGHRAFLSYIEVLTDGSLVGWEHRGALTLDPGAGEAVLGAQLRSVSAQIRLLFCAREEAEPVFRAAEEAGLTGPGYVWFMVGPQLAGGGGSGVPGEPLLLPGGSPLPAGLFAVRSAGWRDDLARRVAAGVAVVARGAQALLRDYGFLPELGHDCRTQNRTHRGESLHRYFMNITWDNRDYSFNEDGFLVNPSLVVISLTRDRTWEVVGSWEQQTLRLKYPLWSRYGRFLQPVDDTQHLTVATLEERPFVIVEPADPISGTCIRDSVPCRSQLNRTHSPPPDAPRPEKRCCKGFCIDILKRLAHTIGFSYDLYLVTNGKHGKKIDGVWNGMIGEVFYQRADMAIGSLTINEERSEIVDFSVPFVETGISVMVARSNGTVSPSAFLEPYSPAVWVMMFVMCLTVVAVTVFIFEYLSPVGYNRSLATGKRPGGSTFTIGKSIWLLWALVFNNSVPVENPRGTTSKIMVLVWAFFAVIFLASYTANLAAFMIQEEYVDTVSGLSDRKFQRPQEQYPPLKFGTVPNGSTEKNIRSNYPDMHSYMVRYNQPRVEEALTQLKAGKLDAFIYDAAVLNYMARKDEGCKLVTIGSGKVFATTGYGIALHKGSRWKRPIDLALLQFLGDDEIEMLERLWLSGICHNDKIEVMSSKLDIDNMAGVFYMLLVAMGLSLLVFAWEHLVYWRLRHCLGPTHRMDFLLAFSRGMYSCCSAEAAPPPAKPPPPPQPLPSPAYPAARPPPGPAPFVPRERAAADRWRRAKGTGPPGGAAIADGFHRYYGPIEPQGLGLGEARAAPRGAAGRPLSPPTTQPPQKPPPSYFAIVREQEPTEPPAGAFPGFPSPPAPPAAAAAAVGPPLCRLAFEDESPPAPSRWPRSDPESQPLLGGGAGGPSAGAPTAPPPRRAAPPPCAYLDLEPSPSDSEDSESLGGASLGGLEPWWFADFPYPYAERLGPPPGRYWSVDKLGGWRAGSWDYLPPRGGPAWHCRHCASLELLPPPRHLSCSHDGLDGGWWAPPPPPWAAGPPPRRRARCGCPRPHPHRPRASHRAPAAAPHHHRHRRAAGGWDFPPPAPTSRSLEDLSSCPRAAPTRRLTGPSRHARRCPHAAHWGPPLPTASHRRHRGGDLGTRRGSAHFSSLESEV

Molecular target: GluN1/GluN2D (Rattus norvegicus, UniProt Q62645)
Experiment: Whole-cell voltage-clamp recordings, HEK cells, GluN1/GluN2D (agonist dependence)

## O=C(O)CCC(=O)N1N=C(c2c(-c3ccc(Cl)cc3)c3ccccc3[nH]c2=O)C[C@H]1c1ccc(Cl)cc1
0.03 μM compound, mean ± SEM
  τdeactivation following glutamate removal: 7.3 ± 0.6 s
0.1 μM compound, mean ± SEM
  τdeactivation following glutamate removal: 5.6 ± 0.8 s
1 μM compound, mean ± SEM
  τdeactivation following glutamate removal: 9.2 ± 0.5 s
3 μM compound, mean ± SEM
  τdeactivation following glutamate removal: 9.2 ± 0.5 s
Inhibitor preapplied, from kON and kOFF, supplement
  Kd: 200 nM
Inhibitor preapplied, linear regression of 1/τinhibition vs concentration
  kOFF: 0.11 s^–1
Mean ± SEM, compared by ANOVA
  fold-change in IC50 for the peak and steady-state current responses: 3.9 ± 0.3
Ratio of IC50 values
  IC50 fold higher during peak compared to steady-state: 4 fold
read-out: IC50 peak (95% CI), peak current response to glutamate, inhibitor preapplied
  IC50: 2100 nM
read-out: IC50 pulse 1 (95% CI), first of 5 brief NMDA (500 μM)/glycine (250 μM) pulses at 1 s intervals
  IC50: 1800 nM
read-out: IC50 pulse 5 (95% CI), fifth of 5 brief NMDA (500 μM)/glycine (250 μM) pulses at 1 s intervals
  IC50: 490 nM
read-out: IC50 steady-state (95% CI), steady-state current response to glutamate, inhibitor preapplied
  IC50: 510 nM
Trains of brief agonist applications
  IC50 fold higher at first pulse compared to fifth pulse: 2.4 fold
